The source of these data is PubChem BioAssay AID720717 (ICCB-Longwood Screening Facility, Harvard Medical School, 2013).

The list shows a part of the results, in another mix than the full data. Some of these compounds have results that are not shown, active ones among them. The source made the active and inactive calls.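 How the source made its calls: active means both repeat wells score below -2 in polarization z-score versus plate sample wells, excluding overly bright wells; inactive means the rest.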

The test system of the test is LANA (ORF73) N-terminal peptide binding to nucleosomes, Human herpesvirus 8. Nature of the test: LANA N-terminal peptide–nucleosome interaction blockers – biochemical, fluorescence polarization, FITC-LANA1-23, chicken nucleosomes, primary screen (AID 720717). As to conditions: FITC-LANA1-23 / chicken nucleosome fluorescence polarization; active compounds read low. Put shortly:
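Assay system: purified chicken nucleosomes with FITC-labelled LANA N-terminal peptide (1-23) / Probe or stimulus: 50 nM FITC-LANA1-23 probe / Compound dosing: pin-transferred compound, 100 nL / Times: compound with peptide–nucleosome mix 10–45 min at room temperature / Technique: fluorescence polarization, 480 nm excitation, 535 nm parallel and perpendicular emission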
Take `CN1C2CCC1CC(OC(=O)C(O)(c1ccccc1)c1ccccc1)C2` (configuration not stated): the z-score is inactive: -0.391.

Turning to `COc1ccc(OC)c(C=C(C#N)C#N)c1`, the z-score was inactive: -9.89.
